Reference: patent US7357914B2, “Use of metal chelates in human or animal feeding” (Agristudio S.R.L., priority 2002, dated 2008)

Assay: feeding test in weaned pigs, zinc source in food (growth, zinc retention, tissue minerals)
Format: in vivo
Procedure: Two test groups of pigs (Control and Test) of 35 days of age and weaned at 19 days, were administered a food differing only in the zinc source. […] The two groups of animals were balanced by nest, living weight and sex and were fed for 27 days. Other 4 animals were immediately sacrificed and a sampling was made of them according to the following procedure. The two groups of animals were weighed before starting the test and after 27 days. At the end of the test the pigs were sacrificed and stomach, intestine, left kidney and liver were removed from every pig. Stomach and intestine were emptied and weighed again so as to obtain the net weight of said organs. A sample of kidney, liver and brain was taken and frozen. Stomach, intestine, left kidney and liver were then put together with the remaining carcass and homogenized with a mixer. A sample was then taken from the mass thus obtained and frozen. The samples were then dehydrated with a dehydrating device and underwent chemical analysis. The level of zinc, copper and iron were determined on the lyophilized samples by atomic absorption spectroscopy. The body levels of zinc were referred to the product. On the basis of the body's “net” weight (i.e. without the content of the digestive tube) and of its content of zinc at test beginning and end it was possible to determine also daily zinc retention.

With `O=S(=O)([O-])[O-].[Zn+2]` [zinc sulfate, reference compound] the Conversion index (50 ppm zinc from the source in food) was 1.72 and the “Liver Iron content” value (lyophilized samples, atomic absorption) was 199.
